From patent US8071778B2, “Substituted heterocyclic ethers and their use in CNS disorders” (Bristol-Myers Squibb Company, priority 2006, dated 2011)

Chains of the proteins cited; added tags and fusions are not shown.
UniProt P25103, whole entry: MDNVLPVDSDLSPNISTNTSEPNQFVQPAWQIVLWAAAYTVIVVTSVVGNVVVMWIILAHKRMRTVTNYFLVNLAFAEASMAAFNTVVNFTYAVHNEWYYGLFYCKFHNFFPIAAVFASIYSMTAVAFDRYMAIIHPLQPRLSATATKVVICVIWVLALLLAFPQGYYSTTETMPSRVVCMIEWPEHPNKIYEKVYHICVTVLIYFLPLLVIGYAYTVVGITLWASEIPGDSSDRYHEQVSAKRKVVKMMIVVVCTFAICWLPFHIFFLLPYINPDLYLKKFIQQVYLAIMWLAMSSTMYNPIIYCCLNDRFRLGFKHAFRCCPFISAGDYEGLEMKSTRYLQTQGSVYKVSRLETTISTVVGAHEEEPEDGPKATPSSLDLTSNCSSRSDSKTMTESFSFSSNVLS
UniProt P31645, whole entry: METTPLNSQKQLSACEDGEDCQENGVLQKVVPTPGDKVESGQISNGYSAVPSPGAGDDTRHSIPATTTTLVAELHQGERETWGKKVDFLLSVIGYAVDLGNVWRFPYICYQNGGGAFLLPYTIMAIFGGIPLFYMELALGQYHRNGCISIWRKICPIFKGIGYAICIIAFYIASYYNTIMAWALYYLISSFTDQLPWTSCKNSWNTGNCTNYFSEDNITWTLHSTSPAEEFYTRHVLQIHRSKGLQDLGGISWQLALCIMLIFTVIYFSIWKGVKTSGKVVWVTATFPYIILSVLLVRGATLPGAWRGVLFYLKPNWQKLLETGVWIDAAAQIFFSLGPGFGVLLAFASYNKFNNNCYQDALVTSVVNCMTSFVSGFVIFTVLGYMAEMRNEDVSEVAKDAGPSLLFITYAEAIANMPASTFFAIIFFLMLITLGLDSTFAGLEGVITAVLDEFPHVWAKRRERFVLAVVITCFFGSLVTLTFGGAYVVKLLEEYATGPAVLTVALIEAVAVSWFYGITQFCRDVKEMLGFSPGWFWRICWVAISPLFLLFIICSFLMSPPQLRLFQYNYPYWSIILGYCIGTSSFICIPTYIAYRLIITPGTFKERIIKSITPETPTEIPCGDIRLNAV

How the values were obtained:
NK-1 = NK-1 (Homo sapiens, UniProt P25103); experiment: NK1 radioligand binding assay; conditions: read-out: NK-1 IC50; U373 membrane preparation, [125I]Substance P
hSERT = hSERT (Homo sapiens, UniProt P31645); experiment: SERT radioligand binding assay; conditions: read-out: SERT IC50; HEK-hSERT membrane preparation, [125I]RTI-55

CCN(c1cc(C(F)(F)F)cc(COCC2(c3ccccc3)CCN(C)CC2)n1)C(C)C
IC50 (NK-1): 0.01 to 100 nM | IC50 (hSERT): 0.01 to 100 nM
